In the library only some 16% were active in any assay of this set; here they are far more common.
TDP1 cell CPT: growth inhibition of DT40 Tdp1-/-;hTDP1 cells with camptothecin (screen for TDP1 inhibitors) | Potency, µM (series often up to 46.2 µM), most hits filed as inhibitors | actives 12% (n = 420,000) | chicken DT40 Tdp1-/-;hTDP1 cells + 20 nM CPT, ATP luminescence, 48 h; note: nearly all actives have a fitted effect of over 55% in size
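Chicken DT40 Tdp1-/- cells stably complemented with human TDP1 were seeded at 400 cells/well in medium containing 20 nM camptothecin, exposed to pin-transferred compounds, and grown at 37 °C for at least 48 hr. Viability was read as ATP luminescence.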
miR-21 reporter: miR-21 reporter, rising signal. 340,000 tested, under 10 active. Potency, µM (highest dose often 38.3 µM). HeLa miR-21 FLuc reporter, luciferase, 48 h. AID 2288; active = well fitted rising curve with a large enough effect; inconclusive = small, poorly fitted or top-dose-only effect; inactive = no such curve, though single readings can be large or run the other way;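 further: miR-21 action dims this reporter so a rising signal means less miR-21 action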
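Using DMEM plus 10% FBS, HeLa miR-21-FLuc cells are incubated with test compounds (final up to about 40uM) for 48 hours; firefly luciferase signal is then imaged following reagent-mediated lysis.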
DT40 TDP1 no CPT: qHTS for Inhibitors of human tyrosyl-DNA phosphodiesterase 1 (TDP1): qHTS in cells in absence of CPT; DT40 Tdp1-/- hTDP1 cells, no CPT, ATP luminescence, 48 h; Potency, µM (doses to about 46.2 µM), hits mostly inhibitors; actives 15% (n = 420,000); note: nearly all actives have a fitted effect of over 55% in size
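Luminescent ATP content (CellTiter-Glo) served as the growth readout. Knockout chicken DT40 cells expressing human TDP1 were exposed to compounds without camptothecin for a minimum 48 hr at 37 °C.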
TDP1 inh: inhibitors of human tyrosyl-DNA phosphodiesterase TDP1. Q9NUW8. Potency, µM (doses to about 130 µM), most hits filed as inhibitors. recombinant TDP1, AlphaScreen DNA substrate cleavage. actives 0.28% (n = 350,000); note: nearly all actives have a fitted effect of over 40% in size
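AlphaScreen read-out: signal falls as enzyme removes the 3' tyrosine-FITC from a 5'-biotinylated DNA oligo (15 nM, 5 min, RT). Enzyme was E. coli-made recombinant Tdp1 at 1 nM, exposed to compound for 15 min beforehand; beads 10 ug/ml, 10 min.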
uPA surface inh: blocks generation of uPA at the cell surface; actives 0.31% (n = 330,000); Potency, µM (titrated, usually from 38.3 µM), actives largely listed as inhibitors; AID 540303; cell surface uPA generation assay, qHTS; active = well fitted inhibition curve with a large enough effect; inconclusive = small, poorly fitted or top-dose-only effect; inactive = no such curve, though single readings can be large or run the other way; tested in mouse RAW 264.7 cells; note: nearly all actives have a fitted effect of over 55% in size
A number is an active result; . = inactive; ? = inconclusive; / = no result. Unless noted, calls come from the whole dose curve; as a rule, active = well fitted curve in the direction sought with a large enough effect; inconclusive = small, poorly fitted or top-dose-only effect, or another doubt; inactive = no such curve, though single readings can be large; an effect the other way counts as inactive or inconclusive.

SMILES	TDP1 cell CPT	miR-21 reporter	DT40 TDP1 no CPT	TDP1 inh	uPA surface inh
Cc1c(Br)ccc(NC(=O)c2ccccc2[N+](=O)[O-])c1C	?	.	?	.	?
O=C(NCc1ccccn1)C1CCN(S(=O)(=O)c2ccccc2C(F)(F)F)CC1	.	/	.	.	.
O=C(c1ccccc1)c1ccccc1C(=O)c1ccccc1	?	.	18µM	.	.
COc1ccc(CNC(=O)COC(=O)c2ccccc2C(=O)c2ccccc2)cc1	?	.	8.2µM	.	.
O=C(c1ccccc1)c1cccc(C(=O)c2ccccc2)c1	.	/	.	?	.
CCCCCCn1nc(C(=O)Nc2nc3c(s2)CCCC3)c2ccccc2c1=O	15µM	.	?	.	.
CC(C)n1nc(C(=O)Nc2nc3ccccc3[nH]2)c2ccccc2c1=O	?	.	15µM	.	.
CCCn1nc(C(=O)Nc2ccc(-n3cnnn3)cc2)c2ccccc2c1=O	?	/	12µM	.	.
CCCn1nc(C(=O)Nc2ccc(N3CCOCC3)cc2)c2ccccc2c1=O	.	/	.	/	.
CC(C)n1nc(C(=O)NNC(=O)c2ccncc2)c2ccccc2c1=O	.	/	.	.	.
CCCn1nc(C(=O)Nc2nc3ccccc3[nH]2)c2ccccc2c1=O	?	.	16µM	.	.
CCOC(=O)C1CCN(CCC(=O)Nc2ccc(F)cc2)CC1	.	.	.	.	.
CCOc1cc(S(=O)(=O)Nc2ccncc2)ccc1F	.	.	.	.	.
O=C(CCCC(=O)N(CC(=O)NC1CCCC1)C1CCCC1)Nc1ccccn1	.	.	.	.	.
Cc1cc(S(=O)(=O)Nc2ccc3c(c2)COC3=O)ccc1F	.	.	.	.	.
Cc1ccc(S(=O)(=O)N(CCCO)CC(O)CON=C2c3ccccc3-c3ccccc32)cc1 (stereo not drawn)	?	.	16µM	.	.
CN(C)c1ccc(/C=C/c2ccnc3c2ccc2c(/C=C/c4ccc(N(C)C)cc4)ccnc23)cc1	.	/	.	/	/
COc1ccc(/C=N/Nc2ncnc3c2[nH]c2ccccc23)c(OC)c1OC	.	.	.	.	.
Cc1ccc2nccc(/C=C/c3ccc(N(C)C)cc3)c2c1	11µM	/	14µM	/	/
CN(C)c1ccc(/C=C/c2ccnc3cc(Cl)ccc23)cc1	?	/	11µM	/	/
Cc1ccc2c(/C=C/c3ccc(N(C)C)cc3)ccnc2c1	11µM	/	?	/	/
COc1ccc(OC)c2c(/C=C/c3c(C)[nH]c4ccccc34)ccnc12	10µM	/	11µM	/	/
CCOc1ccc(NC(=O)CN(C)C(=O)c2ccccc2-n2cnnn2)cc1OCC	.	/	?	.	.
COc1ccc2nc(NC(=O)CSc3nnnn3C)sc2c1	.	.	.	.	.
COc1ccc(Cl)cc1N1C(=O)C2CCCN2C1c1sccc1C (stereo not drawn)	.	.	.	.	.
SMILES	TDP1 cell CPT	miR-21 reporter	DT40 TDP1 no CPT	TDP1 inh	uPA surface inh
Cc1cccc(C(c2sc3nc(-c4ccco4)nn3c2O)N2CCN(c3ccccc3)CC2)c1 (stereo not drawn)	?	.	.	.	/
O=C(C1CCCN(Cc2ccc(Cl)cc2)C1)N1CCCCC1 (stereo not drawn)	.	.	.	/	.
COc1ccc(OC)c2c(/C=C/c3ccc(N(C)C)cc3)ccnc12	10µM	/	6.3µM	/	/
CN(C)c1ccc(/C=C/c2ccnc3c(N)cccc23)cc1	2µM	/	1.4µM	/	/
COc1ccc2nc(C3CCCCC3)nc(C3CCCCC3)c2c1	?	/	?	.	.
O=c1cc(-c2ccco2)oc2c1ccc1ccccc12	.	.	.	.	.
O=c1cc(C(Cl)(Cl)Cl)oc2c1ccc1ccccc12	0.15µM	.	0.52µM	.	.
O=c1cc(-c2ccncc2)oc2c1ccc1ccccc12	?	.	23µM	/	.
O=c1cc(-c2ccc(O)cc2)oc2c1ccc1ccccc12	.	/	.	/	.
COP(=O)(OC)OC(C(=O)c1ccccc1)c1ccccc1 (stereo not drawn)	.	/	.	/	/
O=C(c1ccccc1)N1CCN(Cc2ccccc2C(F)(F)F)CC1	.	.	.	.	/
Cn1c(CNC(=O)C(Cc2ccccc2)NC(=O)c2ccccc2)cc(=O)n(C)c1=O (stereo not drawn)	.	.	.	.	.
CC(NC(=O)c1ccc2ccccc2n1)c1ccc(S(N)(=O)=O)cc1 (stereo not drawn)	.	.	.	/	.
COc1ccc(CCNC(=O)CCCCn2c(=O)c3ccccc3n(Cc3ccc(F)cc3Cl)c2=O)cc1OC	21µM	.	6.5µM	.	/
O=C(CCCCn1c(=O)c2ccccc2n(Cc2ccc(F)cc2Cl)c1=O)NCCc1ccc(Cl)cc1	?	.	?	.	/
COc1ccc(CCNC(=O)CCn2c(=O)c3ccccc3n(Cc3ccccc3C)c2=O)cc1OC	15µM	.	18µM	.	/
O=C(CCCn1c(=O)c2ccccc2n(Cc2ccc(F)cc2Cl)c1=O)NCCc1ccc(Cl)cc1	?	.	18µM	.	/
COc1ccc(Cl)cc1NC(=O)Cn1c(=O)n(CCCC(=O)NCCc2ccc(OC)c(OC)c2)c(=O)c2ccccc21	15µM	.	8.2µM	.	/
COc1ccc(CCNC(=O)CCCCn2c(=O)c3ccccc3n(Cc3ccc(Cl)cc3)c2=O)cc1OC	23µM	.	?	.	/
COc1ccc(CCNC(=O)CCCn2c(=O)c3ccccc3n(Cc3cccc(Cl)c3)c2=O)cc1OC	?	.	?	.	/
COc1ccc(Cl)cc1C(=O)Nc1ccccc1N1CCN(C(=O)C(C)C)CC1	29µM	.	18µM	.	.
COc1cc(NC(=O)c2cc(Br)cc(C)c2OC)ccc1NC(=O)C(C)C	?	.	23µM	.	.
COc1ccc(Cl)cc1C(=O)Nc1ccc(NC(C)=O)cc1	.	.	.	.	.
COc1ccc(Cl)cc1C(=O)Nc1ccc(NC(=O)C(C)C)cc1	18µM	.	18µM	.	.
CC(=O)N1CCN(c2ccccc2NC(=O)c2cccc3c(Cl)cccc23)CC1	15µM	.	?	/	.
SMILES	TDP1 cell CPT	miR-21 reporter	DT40 TDP1 no CPT	TDP1 inh	uPA surface inh
NNC(=O)C(Cc1ccccc1)NC(=O)OCc1ccccc1 (stereo not drawn)	.	.	.	.	.
c1ccc(-n2c(Sc3cnccn3)nnc2-c2cccs2)cc1	.	.	.	.	.
CCc1nnc(NC(=O)CSc2nnc(-c3ccoc3C)n2-c2ccccc2)s1	.	.	.	.	.
COc1c(C)cc(Br)cc1C(=O)Nc1ccccc1N1CCN(C(=O)c2ccccc2)CC1	?	.	15µM	.	/
O=C(Nc1ccccc1N1CCN(C(=O)c2ccccc2)CC1)c1cc(Br)ccc1Cl	18µM	.	23µM	.	.
O=C(Nc1ccccc1N1CCN(C(=O)c2ccc(Cl)cc2)CC1)c1cccc(F)c1	?	.	?	.	.
COc1ccc(Br)cc1C(=O)Nc1ccccc1N1CCN(C(=O)c2ccccc2)CC1	?	.	16µM	.	.

High-throughput results from PubChem.
